Experimental data published in US20150004134A1, “TREATMENT OF CANCER WITH HETEROCYCLIC INHIBITORS OF GLUTAMINASE” (Calithera Biosciences, Inc., priority 2012, published 2015).

Biological target: T1, recombinant form of Glutaminase 1 (GAC) (Homo sapiens, UniProt O94925)
T1 sequence (O94925 137-598 isoform O94925-3 limits assumed): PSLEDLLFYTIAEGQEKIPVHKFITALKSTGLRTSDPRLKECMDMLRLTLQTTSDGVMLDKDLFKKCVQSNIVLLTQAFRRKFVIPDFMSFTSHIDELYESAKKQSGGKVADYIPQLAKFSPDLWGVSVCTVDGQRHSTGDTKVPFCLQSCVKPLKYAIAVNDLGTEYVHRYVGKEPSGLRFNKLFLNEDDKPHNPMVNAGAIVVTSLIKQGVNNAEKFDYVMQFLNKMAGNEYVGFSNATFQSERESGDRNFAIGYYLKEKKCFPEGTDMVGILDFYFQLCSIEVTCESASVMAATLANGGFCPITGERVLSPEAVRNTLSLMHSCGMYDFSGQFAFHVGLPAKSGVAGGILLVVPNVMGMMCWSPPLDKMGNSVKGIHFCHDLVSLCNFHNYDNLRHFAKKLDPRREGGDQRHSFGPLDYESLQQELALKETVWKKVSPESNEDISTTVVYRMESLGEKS
Test: Recombinant Enzyme Assay (no preincubation);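 further: GDH-coupled GAC activity read as absorbance at 340 nm in kinetic mode over 15 min at 20 °C, slopes compared with a DMSO-only control, lower slope means inhibition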
Type: biochemical
Settings: read-out: GAC Delta N2 IC50 no preinc

Compound | IC50 [nM]
COc1cccc(CC(=O)Nc2nnc(CCSCCc3nnc(NC(=O)Cc4cccc(OC)c4)s3)s2)c1 [Compound 156] | 120
N[C@H](C(=O)Nc1nnc(CCCCc2nnc(NC(=O)[C@@H](N)c3ccccc3)s2)s1)c1ccccc1 [Compound 187] | 2800
O=C(Cc1cccc(OCCO)c1)Nc1nnc(CCSCCc2nnc(NC(=O)Cc3cccc(OCCO)c3)s2)s1 [Compound 236] | 200
O=C(Cc1ccccc1)Nc1ccc(CCCCc2nnc(NC(=O)Cc3cccc(Cl)c3)s2)nn1 [Compound 335] | 62
Nc1nnc(CCCCc2ccc(NC(=O)Cc3ccccc3)nn2)s1 [Compound 342] | 1400
Nc1ccc(CCCCc2nnc(NC(=O)Cc3ccccc3)s2)nn1 [Compound 348, N-(5-(4-(6-aminopyridazin-3-yl)butyl)-1,3,4-thiadiazol-2-yl)-2-phenylacetamide] | 1000
O=C(Cc1ccccc1)Nc1ccc(CCCCc2nnc(NC(=O)[C@H](O)c3ccccc3)s2)nn1 [Compound 349] | 120

Biological target: T1, recombinant form of Glutaminase 1 (GAC)
Test: Recombinant Enzyme Assay - Time Dependence (60 min preincubation)
Type: biochemical
Settings: not given
Method: The enzyme/compound mix was sealed with sealing foil (USA Scientific) and allowed to incubate, with mild agitation, for 60 minutes at 20° C. Enzymatic reaction was started with the addition of 50 μL of substrate solution (50 mM Tris-HCl pH 8.0, 0.2 mM EDTA, 150 mM K2HPO4, 0.1 mg/ml BSA, 1 mM DTT, 20 mM L-glutamine, 2 mM NAD^+, and 10 ppm antifoam) and read in a Molecular Devices M5 plate reader at 20° C. The plate reader was configured to read absorbance (=340 nm) in kinetic mode for 15 minutes. Data was recorded as milli-absorbance units per minute and slopes were compared to a control compound and a DMSO-only control on the same plate. Compounds with slopes less than the DMSO control were considered inhibitors and plate variability was assessed using the control compound.

IC50 [nM] | Compound
3 | CS(=O)(=O)CCCOc1cccc(CC(=O)Nc2ccc(CCCCc3nnc(NC(=O)Cc4ccccc4)s3)nn2)c1 [Compound 623]

Same assay, conditions: read-out: GAC Delta N2 IC50 60 min preinc

Compound | IC50 [nM]
CC(C)(C)OC(=O)NCc1cccc(CC(=O)Nc2nnc(CCCCc3nnc(NC(=O)Cc4cccc(CNC(=O)OC(C)(C)C)c4)s3)s2)c1 [Compound 324] | 11
CC(C)(C)OC(=O)Nc1cccc(CC(=O)Nc2nnc(CCCCc3ccc(NC(=O)Cc4ccccc4)nn3)s2)c1 [Compound 399] | 5
O=C(Cc1ccccc1)Nc1ccc(CCCCc2nnc(NC(=O)NC3CCCC3)s2)nn1 [Compound 403] | 18
O=C(Cc1ccccc1)Nc1nnc(CCCCc2ccc(NC(=O)NCc3ccccc3)nn2)s1 [Compound 405] | 81
NCc1ccc(CC(=O)Nc2nnc(CCCCc3ccc(NC(=O)Cc4ccccc4)nn3)s2)cc1 [Compound 407] | 12
Nc1cccc(CC(=O)Nc2nnc(CCCCc3ccc(NC(=O)Cc4ccccc4)nn3)s2)c1 [Compound 409] | 8
O=C(Cc1ccccc1)Nc1ccc(CCCCc2nnc(NC(=O)C(O)c3cccc(Br)c3)s2)nn1 (stereo not shown) [Compound 415] | 6
CCNC(=O)Nc1ccc(CCCCc2nnc(NC(=O)Cc3cccc(CNC(=O)OC(C)(C)C)c3)s2)nn1 [Compound 420] | 13
CC(=O)Nc1ccc(CC(=O)Nc2nnc(CCCCc3ccc(NC(=O)Cc4ccccc4)nn3)s2)cc1 [Compound 426] | 11
O=C(Cc1ccccc1)Nc1ccc(CCCCc2nnc(NC(=O)Cc3cccc(OCCO)c3)s2)nn1 [Compound 427] | 7
COCCOc1cccc(CC(=O)Nc2nnc(CCCCc3ccc(NC(=O)Cc4ccccc4)nn3)s2)c1 [Compound 428] | 7
O=C(Cc1ccccc1)Nc1ccc(CCCCc2nnc(NC(=O)Cc3cccc(CNC(=O)c4ccccc4)c3)s2)nn1 [Compound 432] | 2
O=C(Cc1ccccc1)NCc1cccc(CC(=O)Nc2nnc(CCCCc3ccc(NC(=O)Cc4ccccc4)nn3)s2)c1 [Compound 435] | 2
O=C(Cc1cccc(Cl)c1)Nc1ccc(CCCCc2nnc(NC(=O)C(O)c3cccc(Cl)c3)s2)nn1 (stereo not shown) [Compound 448] | 5
O=C(Cc1ccccc1)Nc1ccc(CCCCc2nnc(NC(=O)Cc3cccc(CNC(=O)C(F)(F)F)c3)s2)nn1 [Compound 458] | 3
CC(=O)NCc1cccc(CC(=O)Nc2nnc(CCCCc3ccc(NC(C)=O)nn3)s2)c1 [Compound 459] | 48
CC(=O)Nc1ccc(CCCCc2nnc(NC(=O)Cc3cccc(CNC(=O)CC(C)C)c3)s2)nn1 [Compound 461] | 11
CC(C)(C)OC(=O)NCc1ccccc1CC(=O)Nc1nnc(CCCCc2ccc(NC(=O)Cc3ccccc3)nn2)s1 [Compound 464] | 5
COc1cccc(CC(=O)Nc2ccc(CCCCc3nnc(NC(=O)C(O)c4cccc(Cl)c4)s3)nn2)c1 (stereo not shown) [Compound 467] | 5
O=C(Cc1ccccc1)Nc1ccc(CCCCc2nnc(NC(=O)Cc3cccc(CC(=O)N4CCC(F)(F)CC4)c3)s2)nn1 [Compound 474] | 3
O=C(Cc1ccccc1)Nc1ccc(CCCCc2nnc(NC(=O)Cc3cccc(CN4CCCCC4=O)c3)s2)nn1 [Compound 476] | 4
C[C@@](O)(C(=O)NCc1cccc(CC(=O)Nc2nnc(CCCCc3ccc(NC(=O)Cc4ccccc4)nn3)s2)c1)C(F)(F)F [Compound 477] | 5
CN(C)CC(=O)Nc1ccc(CCCCc2nnc(NC(=O)Cc3cccc(CNC(=O)OC(C)(C)C)c3)s2)nn1 [Compound 478] | 18
O=C(Cc1ccccc1)Nc1ccc(CCCCc2nnc(NC(=O)Cc3cccc(CN4CCCC4=O)c3)s2)nn1 [Compound 479] | 5
CC(=O)Nc1nnc(CCCCc2ccc(NC(=O)Cc3cccc(CNC(=O)OC(C)(C)C)c3)nn2)s1 [Compound 491] | 8

Compound | IC50 [nM]
CCCCNC(=O)Cc1cccc(CC(=O)Nc2nnc(CCCCc3ccc(NC(=O)Cc4ccccc4)nn3)s2)c1 [Compound 496] | 3
O=C(Cc1ccccc1)Nc1ccc(CCCCc2nnc(NC(=O)Cc3cccc4[nH]ncc34)s2)nn1 [Compound 512] | 5
COc1cc(CC(=O)Nc2nnc(CCCCc3ccc(NC(=O)Cc4ccccc4)nn3)s2)ccc1F [Compound 515] | 7
COc1ccccc1CC(=O)Nc1nnc(CCCCc2ccc(NC(=O)Cc3ccccc3Cl)nn2)s1 [Compound 531] | 6
O=C(Cc1ccccc1F)Nc1ccc(CCCCc2nnc(NC(=O)Cc3ccccc3F)s2)nn1 [Compound 534] | 8
COc1cc(CC(=O)Nc2ccc(CCCCc3nnc(NC(=O)Cc4ccccc4)s3)nn2)ccc1F [Compound 537] | 7
CC(NC(=O)OC(C)(C)C)c1cccc(CC(=O)Nc2nnc(CCCCc3ccc(NC(=O)Cc4ccccc4)nn3)s2)c1 (stereo not shown) [Compound 541] | 4
O=C(Cc1ccccc1)Nc1ccc(CCCCc2nnc(NC(=O)Cc3cccc(Cl)c3F)s2)nn1 [Compound 545] | 6
COc1cc(CC(=O)Nc2nnc(CCCCc3ccc(NC(=O)Cc4ccccc4)nn3)s2)ccc1O [Compound 554] | 8
CC(N)c1cccc(CC(=O)Nc2ccc(CCCCc3nnc(NC(=O)Cc4ccccc4)s3)nn2)c1 (stereo not shown) [Compound 560] | 10
CC(C)(C)OC(=O)NCc1cccc(CC(=O)Nc2ccc(CCCCc3nnc(NC(=O)Cc4cccc(CNC(=O)OC(C)(C)C)c4)s3)nn2)c1 [Compound 571] | 11
CCOC(=O)NCc1cccc(CC(=O)Nc2ccc(CCCCc3nnc(NC(=O)Cc4cccc(CNC(=O)OCC)c4)s3)nn2)c1 [Compound 572] | 3
COc1ccc(CC(=O)Nc2nnc(CCCCc3ccc(NC(=O)Cc4ccccc4)nn3)s2)cc1O [Compound 582] | 5
Nc1ccc(CCCCc2nnc(NC(=O)Cc3cccc(OC(F)(F)F)c3)s2)nn1 [Compound 584] | 220
COC(=O)NC(C)c1cccc(CC(=O)Nc2ccc(CCCCc3nnc(NC(=O)Cc4ccccc4)s3)nn2)c1 (stereo not shown) [Compound 589] | 4
CCNC(=O)OC(C)c1cccc(CC(=O)Nc2ccc(CCCCc3nnc(NC(=O)Cc4ccccc4)s3)nn2)c1 (stereo not shown) [Compound 610] | 5
CC(O)c1cccc(CC(=O)Nc2ccc(CCCCc3nnc(NC(=O)Cc4ccccc4)s3)nn2)c1 (stereo not shown) [Compound 611] | 6
O=C(O)Cc1cccc(OCC(=O)Nc2nnc(CCCCc3ccc(NC(=O)Cc4ccccc4)nn3)s2)c1 [Compound 627] | 28
COC(=O)Cc1cccc(OCC(=O)Nc2nnc(CCCCc3ccc(NC(=O)Cc4ccccc4)nn3)s2)c1 [Compound 628] | 27
CS(=O)(=O)Cc1cccc(CC(=O)Nc2nnc(CCCCc3ccc(NC(=O)Cc4ccccc4)nn3)s2)c1 [Compound 634] | 6
Cc1noc(Cc2cccc(CC(=O)Nc3ccc(CCCCc4nnc(NC(=O)Cc5ccccc5)s4)nn3)c2)n1 [Compound 648, 2-(3-((3-methyl-1,2,4-oxadiazol-5-yl)methyl)phenyl)-N-(6-(4-(5-(2-phenylacetamido)-1,3,4-thiadiazol-2-yl)butyl)pyridazin-3-yl)acetamide] | 4
O=C(Cc1ccccc1)Nc1ccc(CCCCc2nnc(NC(=O)Cc3cccc4c3CNC4)s2)nn1 [Compound 650] | 13
CC(=O)N1Cc2cccc(CC(=O)Nc3nnc(CCCCc4ccc(NC(=O)Cc5ccccc5)nn4)s3)c2C1 [Compound 651] | 6
Cc1nnc(Cc2cccc(CC(=O)Nc3ccc(CCCCc4nnc(NC(=O)Cc5ccccc5)s4)nn3)c2)o1 [Compound 652, 2-(3-((5-methyl-1,3,4-oxadiazol-2-yl)methyl)phenyl)-N-(6-(4-(5-(2-phenylacetamido)-1,3,4-thiadiazol-2-yl)butyl)pyridazin-3-yl)acetamide] | 4
O=C(Cc1ccccc1)Nc1ccc(CCCCc2nnc(NC(=O)Cc3cccc(OC(F)F)c3)s2)nn1 [Compound 664] | 5
